pKd: −log10 of the molar value.
Target: T1, cloned human P2Y1 receptors (Homo sapiens, UniProt P47900)
T1 construct: expressed in transfected cells
Experiment: P2Y1 membrane binding assay ([33P] 2MeS-ADP displacement)
Settings: radioligand Kd used in the Cheng-Prusoff calculation; read-out: Kd for 2MeS-ADP to the P2Y1 receptor
Description: A membrane binding assay was used to identify inhibitors of [^33P] […] The cDNA clone for human P2Y1 was obtained from Incyte Pharmaceuticals and its sequence confirmed by established techniques (for a compendium of techniques used see Ausubel, F. et al. Current Protocols in Molecular Biology 1995 John Wiley and Sons, NY, N.Y.). The essential coding sequences were subcloned into pCDNA 3.1 (Invitrogen) to produce a P2Y1 expression construct. This construct was then transfected into the human embryonic kidney cell line HEK-293 and stable transfectants selected in Genetcin® (G418 sulfate; Life Technologies). […] Plates were then washed with cold (4° C.) D-PBS twice and cells harvested by scraping into 10 mL D-PBS. Cells were pelleted by centrifugation (1,000 g, 10 min, 4° C.) and the resulting pellet resuspended in Lysis Buffer (10 mM Tris (7.4), 5 mM MgCl2 containing Complete® protease inhibitor cocktail (Roche Cat #1873580) as recommended by the manufacturer). […]
Binding reactions were performed in WGA FlashPlates (PerkinElmer Life Sciences, Cat # SMP105A) in a volume of 200 μL containing ˜45 fmol of P2Y1 receptor (5 μg of total protein), 0.5 nM [^33P] […] Plates were sealed and the residual [^33P] bound to the plate determined by scintillation counting.

Amino acid sequences for entries named in this document (tags omitted). A change or cut given only in a name is not applied to a line headed by its entry.
UniProt P47900: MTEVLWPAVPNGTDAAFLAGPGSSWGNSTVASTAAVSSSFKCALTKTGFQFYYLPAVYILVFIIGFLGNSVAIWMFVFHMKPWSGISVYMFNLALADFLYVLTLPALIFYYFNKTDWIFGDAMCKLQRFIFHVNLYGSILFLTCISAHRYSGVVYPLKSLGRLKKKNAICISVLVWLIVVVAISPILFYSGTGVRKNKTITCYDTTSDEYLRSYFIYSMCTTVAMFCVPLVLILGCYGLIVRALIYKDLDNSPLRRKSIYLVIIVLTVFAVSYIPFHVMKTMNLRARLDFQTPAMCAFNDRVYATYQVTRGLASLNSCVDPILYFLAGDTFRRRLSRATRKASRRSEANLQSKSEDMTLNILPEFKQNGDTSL

pKd: 8.85
SMILES: CSc1nc(N)c2ncn([C@@H]3O[C@H](COP(=O)(O)OP(=O)(O)O)[C@@H](O)[C@H]3O)c2n1 [Example 2MeS-ADP, 2MeS-ADP]

Reference: patent US7645778B2, “Heteroaryl compounds as P2Y1 receptor inhibitors” (Bristol-Myers Squibb COmpany, priority 2005, dated 2010)
